Laboratory results taken from ChEMBL document CHEMBL1155848 (2008).

The chains behind the UniProt entries cited, without tags or fusion partners.
UniProt P35968, whole entry: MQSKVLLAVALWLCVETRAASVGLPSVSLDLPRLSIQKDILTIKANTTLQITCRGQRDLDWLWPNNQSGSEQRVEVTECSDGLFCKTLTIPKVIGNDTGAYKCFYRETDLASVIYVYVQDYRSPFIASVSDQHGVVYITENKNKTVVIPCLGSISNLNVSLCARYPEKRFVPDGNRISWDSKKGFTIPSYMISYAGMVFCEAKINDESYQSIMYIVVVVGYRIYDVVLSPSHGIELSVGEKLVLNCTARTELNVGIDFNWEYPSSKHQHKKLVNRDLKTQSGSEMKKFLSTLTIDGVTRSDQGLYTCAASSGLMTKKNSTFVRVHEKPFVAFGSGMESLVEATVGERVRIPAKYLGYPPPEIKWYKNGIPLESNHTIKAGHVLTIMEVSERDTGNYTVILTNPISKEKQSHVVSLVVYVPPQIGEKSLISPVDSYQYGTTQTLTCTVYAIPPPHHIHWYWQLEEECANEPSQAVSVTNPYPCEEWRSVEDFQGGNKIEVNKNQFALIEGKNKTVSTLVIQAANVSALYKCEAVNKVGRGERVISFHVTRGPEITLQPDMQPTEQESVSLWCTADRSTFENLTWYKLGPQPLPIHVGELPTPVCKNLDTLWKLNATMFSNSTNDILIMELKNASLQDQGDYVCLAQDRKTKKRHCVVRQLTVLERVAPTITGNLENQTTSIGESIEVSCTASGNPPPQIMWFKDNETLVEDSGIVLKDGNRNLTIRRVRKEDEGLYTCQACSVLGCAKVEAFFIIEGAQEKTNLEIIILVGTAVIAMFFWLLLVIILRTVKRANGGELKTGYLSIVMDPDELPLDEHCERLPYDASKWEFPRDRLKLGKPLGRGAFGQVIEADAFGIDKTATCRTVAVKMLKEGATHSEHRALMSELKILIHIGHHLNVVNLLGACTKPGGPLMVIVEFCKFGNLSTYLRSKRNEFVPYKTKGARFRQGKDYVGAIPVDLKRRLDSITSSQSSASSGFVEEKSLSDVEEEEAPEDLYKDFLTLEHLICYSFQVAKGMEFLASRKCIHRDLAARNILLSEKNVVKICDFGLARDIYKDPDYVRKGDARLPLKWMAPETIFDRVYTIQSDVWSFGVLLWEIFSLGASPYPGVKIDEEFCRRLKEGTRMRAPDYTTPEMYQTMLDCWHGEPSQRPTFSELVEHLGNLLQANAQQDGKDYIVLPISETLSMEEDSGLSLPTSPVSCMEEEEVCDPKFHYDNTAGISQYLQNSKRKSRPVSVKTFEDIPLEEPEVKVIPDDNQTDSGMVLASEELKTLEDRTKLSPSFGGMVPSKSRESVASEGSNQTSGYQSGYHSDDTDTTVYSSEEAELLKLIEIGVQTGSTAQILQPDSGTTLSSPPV

Target: Vascular endothelial growth factor receptor 2 (Homo sapiens, UniProt P35968)
Assay: Inhibition of VEGFR2

IC50: 6.3 nM
Structure (SMILES): COc1cc(Nc2nccc(Nc3ccc4c(C)n[nH]c4c3)n2)cc(OC)c1OC [GW612286X]
